Here are results for 101 compounds from PubChem BioAssay AID720582 (The Scripps Research Institute Molecular Screening Center, 2013).

Sequences of proteins named here, by UniProt entry; tags and fusion partners are left off. A change or cut given only in a name is not applied to a line headed by its entry.
UniProt O14672: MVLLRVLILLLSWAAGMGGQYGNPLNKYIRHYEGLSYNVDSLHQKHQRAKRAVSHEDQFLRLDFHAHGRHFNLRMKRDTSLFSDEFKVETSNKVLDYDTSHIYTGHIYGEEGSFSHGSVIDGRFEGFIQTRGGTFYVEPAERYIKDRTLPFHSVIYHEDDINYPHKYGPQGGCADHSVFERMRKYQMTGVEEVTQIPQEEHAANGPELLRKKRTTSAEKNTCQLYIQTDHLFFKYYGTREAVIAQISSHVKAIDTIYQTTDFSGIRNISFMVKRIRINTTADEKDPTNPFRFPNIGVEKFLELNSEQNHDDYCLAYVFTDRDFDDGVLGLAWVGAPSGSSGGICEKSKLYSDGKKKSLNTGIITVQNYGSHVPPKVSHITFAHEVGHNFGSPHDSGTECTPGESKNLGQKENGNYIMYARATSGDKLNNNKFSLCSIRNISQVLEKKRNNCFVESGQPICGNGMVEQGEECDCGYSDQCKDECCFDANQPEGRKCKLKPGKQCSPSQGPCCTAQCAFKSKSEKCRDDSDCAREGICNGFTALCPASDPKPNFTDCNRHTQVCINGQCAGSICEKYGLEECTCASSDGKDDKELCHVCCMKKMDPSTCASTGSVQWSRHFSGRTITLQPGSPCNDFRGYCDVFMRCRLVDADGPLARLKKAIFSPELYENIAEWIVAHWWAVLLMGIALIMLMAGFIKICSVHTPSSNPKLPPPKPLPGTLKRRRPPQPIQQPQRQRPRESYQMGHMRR

Each structure is given as a SMILES string. Only a part is listed here, and it is no random draw. Activity calls are given as the source filed them.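 The calls were made as follows: active = inhibition above a per-campaign cutoff equal to the mean of compounds falling between control-based bounds plus 3 SD (cut at about 20% in these data); inactive = the rest.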

In this test the target is Disintegrin and metalloproteinase domain-containing protein 10 (Homo sapiens) (UniProt O14672). As to the kind of experiment: human ADAM10 inhibitors, primary screen, biochemical, QFRET, HTS (AID 720582).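 Also: 0% = DMSO wells while the 100% control is not disclosed.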 As to conditions: recombinant ADAM10, EDANS/DABCYL FRET peptide cleavage, 3 h; at 7 µM; stronger effect = higher value.
With `COP(=O)(OC)N1CC1c1ccccc1` (stereo unspecified), the inhibition was inactive: 8.69%.
The result for `CCCCOc1ccc(C(=O)NCC2(N3CCCCC3)CCCCC2)cc1OC` reads inactive: -7.61%.
Turning to `Cc1cc(SC(NC(=O)c2ccccc2)C(Cl)(Cl)Cl)nc(C(C)C)n1` (stereo unspecified), the inhibition was inactive: -3.02%.
The same measure for `CCOC(=O)Nc1ccc([As](=O)(O)O)c(O)c1`: inactive: 1.41%; for `O=C(O)C(O)c1ccc(N(CCCl)CCCl)cc1` (stereo unspecified): inactive: 0.77%.
For `CC1CCNP(=O)(N(CCCl)CCCl)O1` (stereo unspecified), the inhibition is inactive: 1.96%.
The same measure for `O=P(Nc1ccccn1)(c1cccc2ccccc12)c1cccc2ccccc12`: inactive: 5.27%; for `Cc1cc(SC(NC=O)C(Cl)(Cl)Cl)ncn1` (stereo unspecified): inactive: -6.31%; for `O=[N+]([O-])c1ccc(Nc2ccc(Oc3ccc([N+](=O)[O-])cc3[N+](=O)[O-])cc2)c([N+](=O)[O-])c1`: inactive: 2.74%.
The result for `CCOC(=O)Nc1cccc([As](=O)(O)O)c1` reads inactive: -1.17%.
The result for `O=C(O)C(=O)c1ccc(N(CCCl)CCCl)cc1` reads inactive: -3.42%; that for `O=C(COc1ccccc1)OC1CN2CCC1CC2` (stereo unspecified), inactive: 3.8%.
Turning to `O=C(Nc1ccncc1[N+](=O)[O-])c1ccc([N+](=O)[O-])cc1[N+](=O)[O-]`, the inhibition is inactive: -5.53%.
On to `COP1(=S)c2c(C)nn(CCC#N)c2N=C(c2ccc(F)cc2)N1C` (stereo unspecified), for which the inhibition was inactive: 4.07%.
The same measure for `COC(=O)C1(C)COP(=O)(N2CCCC2)OC1` (stereo unspecified): inactive: 5.24%; for `CCC(C)N(CC(C)C)C(=S)SC(NC(C)=O)C(Cl)(Cl)Cl` (stereo unspecified): inactive: -6.5%; for `O=C(OC1CN2CCC1CC2)c1cccc([N+](=O)[O-])c1` (stereo unspecified): inactive: -7.82%.
The result for `CCOC(=O)c1ccc(NC(=O)C(C)(CCl)SC)cc1` (stereo unspecified) reads inactive: 8.95%; that for `O=P1(N(CCCl)CCCl)Nc2ccccc2N1`, inactive: -33.7%; that for `O=P1(N(CCCl)CCCl)OCCCN1CCCl` (stereo unspecified), inactive: -3.93%.
The same measure for `COc1ccc2nc(NP(=O)(c3ccccc3)c3ccccc3)sc2c1`: inactive: 0.3%.
For `COc1cc(I)ccc1[As](=O)(O)O`, the inhibition was inactive: 6.86%.
The same measure for `Cc1c2c(nc3ccccc13)SC(C(Cl)Cl)C2` (stereo unspecified): inactive: -6.37%; for `O=C(OC1CN2CCC1CC2)C12CC3CC(CC(C3)C1)C2` (stereo unspecified): inactive: 6.09%; for `Cc1cc(=O)[nH]c(N[N+](=O)[O-])n1`: inactive: -3.92%.
For `O=[N+]([O-])c1cc(Oc2ccc([N+](=O)[O-])cc2C(F)(F)F)cc([N+](=O)[O-])c1`, the inhibition is inactive: -19.5%.
The same measure for `COc1ccc(N/C(=N/P(=O)(N2CCOCC2)N2CCOCC2)N2CCOCC2)cc1`: inactive: 0.18%; for `[N-]=[N+]=NC1CCCCC1NC(=O)c1cc([N+](=O)[O-])cc([N+](=O)[O-])c1` (stereo unspecified): inactive: 0.56%; for `Cc1ccc(OP(=O)(Nc2ccc([N+](=O)[O-])cn2)Oc2ccc(C)cc2)cc1`: inactive: -5.02%.
The same measure for `Cc1ccc2nc3c(c(C)c2c1)CC(C(Cl)Cl)S3` (stereo unspecified): inactive: -10.4%; for `C[As](=O)(O)c1cccc(C(=O)O)c1`: inactive: 5.68%; for `O=[As](O)(c1ccc(O)cc1)c1ccccc1O`: inactive: -1.22%.
The result for `O=[N+]([O-])c1ccc(-c2cc([N+](=O)[O-])c(O)c([N+](=O)[O-])c2)cc1` reads inactive: 5.1%; that for `COc1cc(C(=O)NCC2(N3CCOCC3)CCCCC2)ccc1OCC(C)C`, inactive: -0.95%; that for `CC(C)NC(=O)NP(=O)(Oc1ccccc1)Oc1ccccc1`, inactive: -1.2%.
For the compound `O=C(OC1CN2CCC1CC2)c1cccc2[nH]cnc12` (stereo unspecified), the inhibition was inactive: -12.8%.
Take `CCN(CC)C(=S)SC(NC=O)C(Cl)(Cl)Cl` (stereo unspecified): the inhibition was inactive: 0.15%.
The result for `ClCCSc1nnc(-c2cccnc2)o1` reads inactive: 2.13%; that for `COC(=O)C1(C)COP(=O)(N2CCCCCC2)OC1` (stereo unspecified), inactive: -4.28%.
Turning to `CC(C)c1ccc(OP(=O)(Nc2ccccn2)Oc2ccccc2F)cc1` (stereo unspecified), the inhibition is inactive: -4.11%.
The same measure for `Nc1ccccc1[As](=O)(O)c1ccccc1`: inactive: 0.71%; for `O=C(O)COc1ccc([As](=O)(O)O)cc1[N+](=O)[O-]`: inactive: 2.29%.
The same measure for `CCOP1(=S)c2c(C)nn(CCC#N)c2N=C(c2ccccc2F)N1C` (stereo unspecified): inactive: 7.02%.
Turning to `O=P(Nc1nccs1)(Oc1ccccc1)Oc1ccccc1`, the inhibition is inactive: -2.56%.
The result for `N#CCCN(C(=O)COC(=O)C(O)(c1ccccc1)c1ccccc1)c1ccc(F)cc1` reads inactive: -1.24%.
In the case of `CN(C(=O)Cc1ccccc1)[C@@H]1CC[C@]2(CCCO2)C[C@H]1N1CCCC1`, the inhibition was inactive: -4%.
Take `CCOP1(=S)c2c(C)nn(CCC#N)c2N=C(c2ccc(F)cc2)N1C` (stereo unspecified): the inhibition was inactive: -7.6%.
The result for `O=[N+]([O-])c1ccc2c(c1)nnn2O` reads inactive: 1.06%.
In the case of `CN(C)C(=O)c1cc([N+](=O)[O-])cc2c1-c1c(cc([N+](=O)[O-])cc1[N+](=O)[O-])C2=O`, the inhibition is inactive: -3.1%.
The result for `CN(C(=O)Cc1ccc(Cl)c(Cl)c1)[C@H]1CC[C@@]2(CCCO2)C[C@@H]1N1CCCC1` reads inactive: -4.8%; that for `NC(=O)Nc1ccc([As](=O)(O)O)cc1`, inactive: -4.09%.
Turning to `Cc1cccc(OCC(=O)OC2CN3CCC2CC3)c1` (stereo unspecified), the inhibition is inactive: 7.72%.
The result for `O=[As](O)(c1cccc(O)c1)c1cccc(O)c1` reads inactive: 0.74%; that for `O=C(OC1CN2CCC1CC2)c1ccc(Cl)cc1` (stereo unspecified), inactive: -6.86%; that for `O=[As](O)(O)c1cccnc1`, inactive: -2.08%.
On to `COc1cc(C(=O)NCC2(N3CCOCC3)CCCCC2)cc(Cl)c1OC(C)C`, for which the inhibition was inactive: -4.22%.
Regarding `CS(=O)(=O)c1ccc(Cl)c(NC(=O)COC(=O)C(O)(c2ccccc2)c2ccccc2)c1`, the inhibition is inactive: 9.43%.
The same measure for `COc1cc(C2NCCC3(OCCO3)C2(C)C)cc(OC)c1OC` (stereo unspecified): inactive: -8.37%; for `CCOP(=O)(Nc1cccc2ccccc12)OCC`: inactive: -12.7%.
As to `Nc1cccc2c([As](=O)(O)O)cccc12`, the inhibition is inactive: -29.2%.
The result for `Cc1ccc(NCCc2c([N+](=O)[O-])cc([N+](=O)[O-])cc2[N+](=O)[O-])cc1` reads inactive: 13.6%; that for `CCCOP(=S)(Nc1nc(N)cc(=O)[nH]1)OCCC`, inactive: 6.98%.
The result for `O=P1(N(CCCl)CCCl)NCCC(C(F)(F)F)O1` (stereo unspecified) reads inactive: -13.6%; that for `Clc1n[nH]nc1-c1nn[nH][15n]1`, inactive: 5.76%.
The result for `CC(C)(C)C(=O)NC(Sc1ncccn1)C(Cl)(Cl)Cl` (stereo unspecified) reads inactive: 10.9%.
Take `O=P1(Nc2ccccn2)COc2ccccc2OC1`: the inhibition was inactive: -1.88%.
The result for `CCC1=CC2Cc3nc4ccc(Cl)cc4c(N)c3C(C1)C2` (stereo unspecified) reads inactive: -21.4%; that for `CCOP(=O)(NC(=NC(C)c1ccccc1)NC(C)c1ccccc1)OCC` (stereo unspecified), inactive: -2.32%; that for `CCOP(=O)(Nc1ccc(C)cn1)OCC`, inactive: -6.83%.
The result for `CN(CCCl)Cc1cc(Cl)c(NC2=NCCN2)c(Cl)c1` reads inactive: 1.9%; that for `CC(C)/C=N\N=C(\N)N[N+](=O)[O-]`, inactive: -3.11%.
The same measure for `CN(C(=O)Cc1ccc(Cl)c(Cl)c1)[C@@H]1CCCC[C@H]1N1CCCC1`: inactive: -10.2%.
For `CN(C(=O)Cc1ccc(Cl)c(Cl)c1)C1CCCC[C@@H]1N1CCCC1` (stereo partly specified), the inhibition was inactive: -1.68%.
With `CC1(CBr)Cn2c(nc3ccccc3c2=O)S1` (stereo unspecified), the inhibition was inactive: -0.18%.
The same measure for `COc1ccccc1CNC(=O)COC(=O)C(O)(c1ccccc1)c1ccccc1`: inactive: 2.62%; for `CN(C)C1(CNC(=O)c2ccc(S(C)(=O)=O)cc2)CCCCC1`: inactive: 0.77%.
The same measure for `O=C(/C=C/c1ccccc1)OC1CN2CCC1CC2` (stereo unspecified): inactive: -0.51%; for `CCCC1OP(=O)(Nc2ccccc2)OCC1CC` (stereo unspecified): inactive: -8.38%.
The same measure for `Cc1nn(-c2ccccc2)c2c1P(=O)(N1CCOCC1)N(C)C(c1ccccc1)=N2` (stereo unspecified): inactive: 1.71%.
Regarding `CC1CCC(C(C)C)C(OP(=O)(Nc2ccccn2)c2ccccc2)C1` (stereo unspecified), the inhibition was inactive: 13.6%.
The same measure for `Cc1ccc(C(=O)OC2CN3CCC2CC3)cc1` (stereo unspecified): inactive: -6.67%.
The same measure for `Nc1cccc([As](=O)(O)c2ccccc2)c1`: inactive: -1.37%; for `O=[As](O)(c1cccs1)c1cccs1`: inactive: -2.71%.
The result for `Cc1ccc(OCC(=O)OC2CN3CCC2CC3)cc1` (stereo unspecified) reads inactive: -2.79%.
Turning to `O=P1(Nc2ccc(Br)cn2)COc2ccccc2OC1`, the inhibition is inactive: 3.53%.
The result for `NS(=O)(=O)c1cccc(NC(=O)COC(=O)C(O)(c2ccccc2)c2ccccc2)c1` reads inactive: -3.72%; that for `Cc1ccc(S(=O)(=O)N(CCCN)CCCc2c(C)nc(N)[nH]c2=O)cc1`, inactive: 4.02%; that for `O=P1(Nc2ncccn2)COc2ccccc2OC1`, inactive: -9.93%.
As for `O=P(Nc1nc2ccccc2s1)(c1ccccc1)c1ccccc1`, the inhibition was inactive: -5.58%.
The same measure for `C[C@H]1OP(=O)(Oc2ccccc2)[C@H](O)[C@H](O)[C@H]1N=[N+]=[N-]` (stereo partly specified): inactive: -0.87%.
For the compound `O=P(Nc1ccccn1)(c1ccc(Br)cc1)c1ccc(Br)cc1`, the inhibition was inactive: -10.1%.
As for `CN(C)C1(CNC(=O)c2ccc(Cl)c(S(N)(=O)=O)c2)CCCCC1`, the inhibition was inactive: 3.36%.
The same measure for `COc1ccc(N)c([N+](=O)[O-])c1[N+](=O)[O-]`: inactive: -13.3%; for `Nc1ccc(CCCCOc2ccccc2)cc1`: inactive: -5.15%.
The result for `O=C(OC1CN2CCC1CC2)c1cccc(Cl)c1` (stereo unspecified) reads inactive: 12.8%; that for `C/C(N)=N\P(=O)(OCc1ccccc1)OCc1ccccc1`, inactive: 4.97%; that for `C(Cc1nn[nH]n1)Cc1nn[nH]n1`, inactive: 5.08%.
The result for `Nc1ccc([As](=O)(O)c2ccc([N+](=O)[O-])cc2)cc1` reads inactive: -0.94%; that for `O=[As](O)(c1ccccc1)c1ccc(O)cc1`, inactive: 8.57%.
Take `O=[N+]([O-])c1ncn(CCn2cnc([N+](=O)[O-])n2)n1`: the inhibition is inactive: -5.27%.
`CC(=O)NC(SC(=S)N(C)C)C(Cl)(Cl)Cl` (stereo unspecified): the inhibition is inactive: -3.59%.
